Reference: ChEMBL document CHEMBL3352445, “Inhibition of activated STAT5 in Bcr/Abl expressing leukemia cells with new pimozide derivatives” (Bioorg Med Chem Lett, 2014)
This is a selection: effects in other tests are not listed, and their absence says nothing.

What was measured:
K562 [1] = assay: Cytotoxicity against human K562 cells after 48 hrs by trypan blue dye exclusion test
K562 [2] = assay: Induction of apoptosis in human K562 cells by annexin V/propidium iodide staining-based flow cytometric analysis

Oc1nc2ccccc2n1C1CCN(Cc2ccccc2)CC1 was tested, and the IC50 (K562 [1]) was > 50 µM and the AC50 (K562 [2]) was > 50 µM.
